These results are taken from ChEMBL document CHEMBL4665668, “Design and development of molecular hybrids of 2-pyridylpiperazine and 5-phenyl-1,3,4-oxadiazoles as potential multifunctional agents to treat Alzheimer's disease” (Eur J Med Chem, 2019).

Sequences of proteins named here, by UniProt entry; tags and fusion partners are left off.
UniProt P06276, whole entry: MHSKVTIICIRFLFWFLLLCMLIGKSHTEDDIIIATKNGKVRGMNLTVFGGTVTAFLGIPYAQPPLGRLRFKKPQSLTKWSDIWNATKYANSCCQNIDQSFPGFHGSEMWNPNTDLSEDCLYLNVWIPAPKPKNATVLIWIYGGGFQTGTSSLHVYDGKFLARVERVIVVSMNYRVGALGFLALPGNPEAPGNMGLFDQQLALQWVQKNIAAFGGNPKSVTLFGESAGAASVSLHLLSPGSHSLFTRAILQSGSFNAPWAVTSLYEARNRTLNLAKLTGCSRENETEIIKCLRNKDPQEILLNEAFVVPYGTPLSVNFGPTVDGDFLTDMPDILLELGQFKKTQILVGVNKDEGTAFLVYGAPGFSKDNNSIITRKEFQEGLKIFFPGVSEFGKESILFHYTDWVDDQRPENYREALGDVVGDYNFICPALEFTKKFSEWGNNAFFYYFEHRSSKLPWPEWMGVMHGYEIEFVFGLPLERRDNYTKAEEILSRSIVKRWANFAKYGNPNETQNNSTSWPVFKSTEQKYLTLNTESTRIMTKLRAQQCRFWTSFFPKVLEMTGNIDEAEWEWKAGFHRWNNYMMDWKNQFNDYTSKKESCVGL

Each structure is given as a SMILES string.

The experiment addresses Cholinesterase (Homo sapiens, UniProt P06276). Description: Inhibition of human serum BChE using butyrylthiocholine iodide as substrate preincubated for 10 mins followed by substrate addition by Ellman's method. The class given is cell-free. (In Ellman's method for cholinesterases, released thiocholine reacts with DTNB.)

As usually defined, the IC50 is the concentration that gives 50% inhibition.

`CCN(C)C(=O)Oc1cccc([C@H](C)N(C)C)c1` [RIVASTIGMINE] had an IC50 of 1220 nM.
